The record followed here is patent US20140142129A1, “METHODS OF TREATING A DISEASE OR DISORDER ASSOCIATED WITH BRUTON'S TYROSINE KINASE” (Celgene Avilomics Research, Inc,, priority 2012, published 2014).

By UniProt entry, the sequences of proteins in these tests, tags left out. Where a name states a change or a piece, a line headed by the entry shows the natural chain unless it says otherwise.
UniProt Q06187: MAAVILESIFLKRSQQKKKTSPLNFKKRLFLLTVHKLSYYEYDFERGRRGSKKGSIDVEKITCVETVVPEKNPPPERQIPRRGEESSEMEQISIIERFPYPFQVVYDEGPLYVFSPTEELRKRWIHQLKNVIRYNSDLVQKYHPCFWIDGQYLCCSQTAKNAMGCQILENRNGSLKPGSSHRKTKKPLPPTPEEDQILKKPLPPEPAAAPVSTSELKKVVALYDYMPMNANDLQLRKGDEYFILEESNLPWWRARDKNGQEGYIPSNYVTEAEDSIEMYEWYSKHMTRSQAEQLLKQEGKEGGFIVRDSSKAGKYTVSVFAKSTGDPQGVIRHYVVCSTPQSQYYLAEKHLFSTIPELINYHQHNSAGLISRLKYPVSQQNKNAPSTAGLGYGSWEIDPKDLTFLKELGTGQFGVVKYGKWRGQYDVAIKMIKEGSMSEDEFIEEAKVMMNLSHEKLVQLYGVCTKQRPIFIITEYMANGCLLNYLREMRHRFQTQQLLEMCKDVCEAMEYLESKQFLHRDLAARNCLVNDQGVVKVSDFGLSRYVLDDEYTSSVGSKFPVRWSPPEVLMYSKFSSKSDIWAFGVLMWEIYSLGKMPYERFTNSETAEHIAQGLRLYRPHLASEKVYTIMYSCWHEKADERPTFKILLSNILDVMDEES

Each structure is given as a SMILES string.

For assay [1], the target named is Btk (Homo sapiens, UniProt Q06187). In words: Btk inhibition. In kind it is biochemical.
In assay [2] the target is auto-phosphorylation site on BTK (Tyr223) (Homo sapiens, UniProt Q06187). The assay is described as follows: Inhibition of BTK auto-phosphorylation (Tyr223) in Ramos cells. In kind it is cell-based. Conditions: human Burkitt lymphoma cell line, read-out: effective concentration required for 50% inhibition (EC50) of phosphorylation of BTK (Tyr223).

The IC50 is the point on the concentration scale where inhibition reaches its midpoint. In assay [1], `C=CC(=O)Nc1cccc(Nc2nc(Nc3ccc(OCCOC)cc3)ncc2F)c1.O=S(=O)(O)c1ccccc1` [Compound 1 besylate, N-(3-(5-fluoro-2-(4-(2-methoxyethoxy)phenylamino)pyrimidin-4-ylamino)phenyl)acrylamide benzenesulfonic acid salt] registered an IC50 of less than 0.5 nM.
Turning to `C=CC(=O)Nc1cccc(Nc2nc(Nc3ccc(OCCOC)cc3)ncc2F)c1` [Compound 1, N-(3-(5-fluoro-2-(4-(2-methoxyethoxy)phenylamino)pyrimidin-4-ylamino)phenyl)acrylamide], the EC50 in assay [2] lay in the range of 1 to 10 nM.
